## Binding of CDR-mutated scFvs to a peptide of the spike HR2 region

Values reported by Li et al. 2023, doi:10.1038/s41467-023-39022-2 (FLAb copy).

All variants were tested on one target, the spike HR2 peptide PDVDLGDISGINAS (SARS-CoV-2).

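The variants were designed computationally from a first round of random CDR variants and then made and measured. Several design methods are mixed in this list. AlphaSeq pools MATa yeast showing the antibodies with MATalpha yeast showing the peptide. Mating (16 h, 30 °C) was followed by selection of diploids and sequencing of their barcodes. Scores were corrected for input abundance and mapped to Kd with protein pairs of known affinity run in the same pool. The assay was run in six technical replicates.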

Parent: Ab-14, a human scFv built as VH, three GGGGS repeats, VL. Only the CDRs of the heavy chain vary.
VH: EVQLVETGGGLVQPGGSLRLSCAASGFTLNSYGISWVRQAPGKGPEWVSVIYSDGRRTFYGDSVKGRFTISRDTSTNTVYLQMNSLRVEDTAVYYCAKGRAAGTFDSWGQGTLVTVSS
VL: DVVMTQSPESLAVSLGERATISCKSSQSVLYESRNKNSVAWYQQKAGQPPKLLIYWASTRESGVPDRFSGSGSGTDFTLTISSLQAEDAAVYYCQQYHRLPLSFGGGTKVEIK

The parent's heavy chain CDRs are GFTLNSYGIS, VIYSDGRRTFYGDSVK, GRAAGTFDS; each variant's own CDRs replace them letter for letter. The Kd shown is the geometric mean over detected replicates; a lower Kd is a better binder. Where no diploid with the target was found in any replicate, the entry reads "not detected": below detection, most likely a poor binder, though not proof of it.

{"CDR-H1": "GFTLNSYGIS", "CDR-H2": "VIYADGRRTFYGDSVK", "CDR-H3": "GRAAGTAKS", "apparent Kd": "1.3 nM", "seen in": "6 of 6"}
{"CDR-H1": "GFSLNSYGIS", "CDR-H2": "VIYSDGRRTFYADEVK", "CDR-H3": "GRTAGTFDS", "apparent Kd": "1.5 nM", "seen in": "6 of 6"}
{"CDR-H1": "GFDLNSYGIS", "CDR-H2": "VIYSDGQRTFYGDSVK", "CDR-H3": "GRTAGTFDS", "apparent Kd": "2.3 nM", "seen in": "6 of 6"}
{"CDR-H1": "GFDLNEYGIS", "CDR-H2": "VIYADGRRTAYTDSVK", "CDR-H3": "GNAAGTFDV", "apparent Kd": "470 pM", "seen in": "6 of 6"}
{"CDR-H1": "GFHLNSYGIS", "CDR-H2": "VIYSDGRRTFYADSVK", "CDR-H3": "GRTAGTFDT", "apparent Kd": "1.4 nM", "seen in": "4 of 6"}
{"CDR-H1": "GFTLNSYGIS", "CDR-H2": "VIYADGRRTFYGDSVK", "CDR-H3": "TRNAGTFDS", "apparent Kd": "not detected", "seen in": "0 of 6"}
{"CDR-H1": "GFDLGEYGIS", "CDR-H2": "VIYADGSRKAYATNFK", "CDR-H3": "GGSGYKDGV", "apparent Kd": "not detected", "seen in": "0 of 6"}
{"CDR-H1": "GTNMNSYGIS", "CDR-H2": "VIYSDGRRTFYLDSVK", "CDR-H3": "GRAAGTFDS", "apparent Kd": "not detected", "seen in": "0 of 6"}
{"CDR-H1": "GFTLNSYGIS", "CDR-H2": "VIYSDGRRTFKGDSVK", "CDR-H3": "GRAAGTFDS", "apparent Kd": "not detected", "seen in": "0 of 6"}
{"CDR-H1": "GFDLSEYGIS", "CDR-H2": "VIYADGERANYVSNFK", "CDR-H3": "GEQAGGFVL", "apparent Kd": "72 nM", "seen in": "6 of 6"}
{"CDR-H1": "GFDLDEYGIS", "CDR-H2": "VIYADGQRTAYADSVK", "CDR-H3": "GNNAGTFDT", "apparent Kd": "310 pM", "seen in": "6 of 6"}
{"CDR-H1": "GFTLNSYGIS", "CDR-H2": "VIYSDGRRTFYGDSVK", "CDR-H3": "GIASGTFDS", "apparent Kd": "not detected", "seen in": "0 of 6"}
{"CDR-H1": "GFDLNEYGIS", "CDR-H2": "VIYADGSRTAYVDSVK", "CDR-H3": "GNNAGTFDV", "apparent Kd": "520 pM", "seen in": "6 of 6"}
{"CDR-H1": "GFNLDEYGIS", "CDR-H2": "VIYADGMRTVFADNVK", "CDR-H3": "GQNVGFTVF", "apparent Kd": "not detected", "seen in": "0 of 6"}
{"CDR-H1": "GENLNSYGIS", "CDR-H2": "VIYSDGRRTFYDDSVK", "CDR-H3": "GRAAGTFDS", "apparent Kd": "120 nM", "seen in": "2 of 6"}
{"CDR-H1": "GFTLNEYGIS", "CDR-H2": "VIYSDGRRTFYGDSVK", "CDR-H3": "GKIAGTFDS", "apparent Kd": "1.9 nM", "seen in": "6 of 6"}
{"CDR-H1": "GFTLNSYLIS", "CDR-H2": "VIYSDVRRTFYSDSVK", "CDR-H3": "GRAGGTFDS", "apparent Kd": "not detected", "seen in": "0 of 6"}
{"CDR-H1": "HFDLNSYGIS", "CDR-H2": "VIYSDGRRTFYGDSVK", "CDR-H3": "GREAGTFDS", "apparent Kd": "2.6 nM", "seen in": "5 of 6"}
{"CDR-H1": "GFDLNSYGIS", "CDR-H2": "VIYSDGRRTFYGDHVK", "CDR-H3": "GRTAGTFDS", "apparent Kd": "2.8 nM", "seen in": "6 of 6"}
{"CDR-H1": "GFSLNSYGIS", "CDR-H2": "VIYSDGRRTFYCDSVK", "CDR-H3": "GQTAGTFDS", "apparent Kd": "32 nM", "seen in": "6 of 6"}
{"CDR-H1": "GFDLNEYGIS", "CDR-H2": "VIYADGMRTAYIDSVK", "CDR-H3": "GENAGTFDT", "apparent Kd": "510 pM", "seen in": "6 of 6"}
{"CDR-H1": "GFDLNSYGIS", "CDR-H2": "VIYSDGRRTFYHDSVK", "CDR-H3": "GRIAGTFDS", "apparent Kd": "1.2 nM", "seen in": "6 of 6"}
{"CDR-H1": "GFDLNEYGIS", "CDR-H2": "VIYADGRRTAYTDSVK", "CDR-H3": "GENAGTFDQ", "apparent Kd": "520 pM", "seen in": "6 of 6"}
{"CDR-H1": "GFKLDEYGIS", "CDR-H2": "VIYADGCRTAYVDSVK", "CDR-H3": "GDTTFSKFV", "apparent Kd": "not detected", "seen in": "0 of 6"}
{"CDR-H1": "GFTLNSYGIS", "CDR-H2": "VIYSDGRRTFYSDYVK", "CDR-H3": "GRAGGTFDS", "apparent Kd": "not detected", "seen in": "0 of 6"}
{"CDR-H1": "GFTLNSYGIS", "CDR-H2": "VIYSDGRRTFYDDSVK", "CDR-H3": "GRAALTFDS", "apparent Kd": "not detected", "seen in": "0 of 6"}
{"CDR-H1": "GDSLEEYGIS", "CDR-H2": "VIYADGKRKAYKNKAK", "CDR-H3": "GQTAGSFDV", "apparent Kd": "42 nM", "seen in": "1 of 6"}
{"CDR-H1": "GYDIDEYGIS", "CDR-H2": "VIYADGMRTAYQNNVK", "CDR-H3": "GEQDGLMTF", "apparent Kd": "not detected", "seen in": "0 of 6"}
{"CDR-H1": "GITLNSYGIS", "CDR-H2": "VIYSDGVRTFYGDSVK", "CDR-H3": "TRAAGYFIE", "apparent Kd": "89 nM", "seen in": "1 of 6"}
{"CDR-H1": "GFDLDEYGIS", "CDR-H2": "VIYADGKRTYYADSVK", "CDR-H3": "GETAGTFDV", "apparent Kd": "410 pM", "seen in": "6 of 6"}

Picked from the list: the 3 lowest averages where every replicate gave a value.

{"CDR-H1": "GFDLDEYGIS", "CDR-H2": "VIYADGQRTAYADSVK", "CDR-H3": "GNNAGTFDT", "apparent Kd": "310 pM", "seen in": "6 of 6"}
{"CDR-H1": "GFDLDEYGIS", "CDR-H2": "VIYADGKRTYYADSVK", "CDR-H3": "GETAGTFDV", "apparent Kd": "410 pM", "seen in": "6 of 6"}
{"CDR-H1": "GFDLNEYGIS", "CDR-H2": "VIYADGRRTAYTDSVK", "CDR-H3": "GNAAGTFDV", "apparent Kd": "470 pM", "seen in": "6 of 6"}

Empty control strains, which show no peptide, gave a signal in 1% of pairings with all heavy chain designs; the median was 120 nM and 95% of these signals were weaker than 7.0 nM. No background was subtracted. A sequence measured in both rounds can read differently, since the two assays cover different ranges. In the paper, a design with two or fewer of six values counts as a poor binder.